The list shows a part of the results, in another mix than the full data. Some salts or complexes appear as unconnected parts, following the source record. The source made the active and inactive calls. No rule for the calls is given here.
The compounds below were run against Eukaryotic translation initiation factor 4H (Homo sapiens) (UniProt Q15056) (assay: human eIF4H binding inhibitors, primary screen, translation initiation inhibitor project, biochemical, uHTS, fluorescence polarization (AID 2012)). Conditions: eIF4H fluorescence polarization binding assay; at 35 µM; hits give high values.

SMILES | inhibition
CC(=O)NC(SC(=S)N(CC(C)C)CC(C)C)C(Cl)(Cl)Cl (stereo not given) | inactive: -3%
Cc1ccc(OP(=O)(Nc2ccccn2)Oc2ccc(C)cc2)cc1 | inactive: -2.4%
COC(=O)c1cc2c(s1)N=C(c1ccccc1)N(C)P2(=O)N1CCOCC1 (stereo not given) | inactive: -15.2%
CCN(CC)CCCOC(=O)C(O)(c1ccccc1)C1CCCCC1 (stereo not given) | inactive: 1.1%
CCC(=O)N1C2C3N(C(=O)CC)C1C1N(C(=O)CC)C(C(N1C(=O)CC)N3C(=O)CC)N2C(=O)CC | inactive: 7%
O=C(OC1CN2CCC1CC2)c1ccccc1 (stereo not given) | inactive: 3.3%
CP(=O)(Nc1ccccc1)Oc1ccc(F)cc1 (stereo not given) | inactive: -1.8%
O=[N+]([O-])c1cc([N+](=O)[O-])c(OC2CCCCC2O)c([N+](=O)[O-])c1 (stereo not given) | inactive: -1.3%
CCCCCOc1ccc(NP(C)(=O)Oc2ccc(Cl)cc2Cl)cc1 (stereo not given) | inactive: -8.3%
O=c1c2cc([N+](=O)[O-])ccc2[nH]c2c([N+](=O)[O-])cc([N+](=O)[O-])cc12 | inactive: 2.6%
CN(C)C(=O)Oc1noc2ccccc12 | inactive: -6.5%
Cc1ccccc1OP(=O)(Nc1ccccn1)Oc1ccccc1C | inactive: 6.3%
CCNC(=S)/N=C(\N)N[N+](=O)[O-] | inactive: -2.8%
O=C(NC1CCS(=O)(=O)C1)NP(=S)(Oc1ccccc1)Oc1ccccc1 (stereo not given) | inactive: 1.4%
Cc1ccc(NP(=O)(Oc2cccc(C)c2)Oc2cccc(C)c2)nc1 | inactive: -12.1%
CCOC(=O)NC(Sc1ccccc1)C(Cl)(Cl)Cl (stereo not given) | inactive: 3.8%
c1ccc(-c2nn[nH]n2)c(-c2nn[nH]n2)c1 | inactive: 3.2%
CCOC(=O)c1ccc(NP(C)(=O)Oc2ccc(F)cc2)cc1 (stereo not given) | inactive: 1.5%
COc1ccc(OP(C)(=O)Nc2ccc(SC(F)(F)F)cc2)cc1 (stereo not given) | inactive: -6.7%
O=C(OC1CN2CCC1CC2)c1ccc([N+](=O)[O-])cc1 (stereo not given) | inactive: 9.6%
CC(=O)c1ccc(N2CC2c2ccncc2)cc1 (stereo not given) | inactive: -3.7%
C[C@H]1OP(=O)(Oc2ccccc2)C[C@@H]2O[C@@H]21 (stereo not given in full) | inactive: -12.2%
C[C@@H]1C=CCP(=O)(Oc2ccccc2)O1 (stereo not given in full) | inactive: -6.8%
O=C(OCCN1CCN(CCOCc2ccccc2)CC1)C(O)(c1ccccc1)c1ccccc1 | inactive: 8.5%
CC(=O)Nc1ccc(Oc2c([N+](=O)[O-])cc([N+](=O)[O-])cc2[N+](=O)[O-])cc1 | inactive: -13.2%

SMILES | inhibition
CC(=O)Nc1ccc([As](=O)(O)O)c(O)c1 | inactive: 1.3%
COc1ccc2c(c1O)-c1c(O)c(OC)cc3c1[C@H](C2)[N+](C)(C)CC3.O=[N+]([O-])c1cc([N+](=O)[O-])c([O-])c([N+](=O)[O-])c1[O-] | inactive: 18%
CCOc1ccc(C2=NCC(CBr)S2)cc1 (stereo not given) | inactive: -21.3%
O=P1(Nc2nc3ccc(Cl)cc3s2)COc2ccccc2O1 (stereo not given) | inactive: -7%
CP(=O)(Nc1ccccc1F)Oc1ccccc1 (stereo not given) | inactive: 3%
CC(C)c1ccc(OP(C)(=O)Nc2ccc(SC(F)(F)F)cc2)cc1 (stereo not given) | inactive: -10.6%
CC(C)(C)C(=O)NC(Sc1ccccc1)C(Cl)(Cl)Cl (stereo not given) | inactive: 5.6%
CP(=O)(Nc1ccc2c(c1)OCCO2)Oc1ccccc1 (stereo not given) | inactive: 8.6%
Cc1ccccc1NP(C)(=O)Nc1ccccc1C | inactive: -8.3%
CP(=O)(Nc1ccc(SC(F)(F)F)cc1)Oc1ccc(F)cc1 (stereo not given) | inactive: -0.3%
CC(C)C(=O)NC(Sc1ccccc1)C(Cl)(Cl)Cl (stereo not given) | inactive: -11.7%
O=P(Nc1nccs1)(c1ccccc1)c1ccccc1 | inactive: 4.1%
CCOP(C)(=S)SCC(=O)NC(C)(CC)C(=O)O (stereo not given) | inactive: -6.7%
c1nnnn1CCn1cnnn1 | inactive: -7.9%
O=[N+]([O-])c1ccc(O)c(/C=N/Nc2ccc([N+](=O)[O-])cc2[N+](=O)[O-])c1 | inactive: 54.2%
O=[N+]([O-])c1ccc(OP2(=O)COCCO2)cc1 (stereo not given) | inactive: 12.3%
O=[N+]([O-])c1ncn(CCn2cnc([N+](=O)[O-])n2)n1 | inactive: -2.3%
Cc1cc(-c2cccc3ccccc23)c(C)cn1.O=[N+]([O-])c1cc([N+](=O)[O-])c(O)c([N+](=O)[O-])c1 | inactive: -9.5%
O=[N+]([O-])c1cc([N+](=O)[O-])c(NCC2CCS(=O)(=O)C2)c([N+](=O)[O-])c1 (stereo not given) | inactive: 1.6%
O=[As](O)(c1ccccc1)c1ccc(O)cc1 | inactive: -2.7%
C(Cc1nn[nH]n1)Cc1nn[nH]n1 | inactive: 4.6%
Nc1ccc([As](=O)(O)c2ccc([N+](=O)[O-])cc2)cc1 | inactive: 3.9%
O=C(OC1CN2CCC1CC2)c1cccc(Cl)c1 (stereo not given) | inactive: 4.1%
COc1ccc(OP(C)(=O)Nc2cccc(Br)c2)cc1 (stereo not given) | inactive: -1.5%
O=P(Nc1ccccn1)(c1ccc(Br)cc1)c1ccc(Br)cc1 | inactive: -0.9%

SMILES | inhibition
CN(C)C1(CNC(=O)c2ccc(Cl)c(S(N)(=O)=O)c2)CCCCC1 | inactive: -2.7%
C[C@H]1OP(=O)(Oc2ccccc2)[C@H](O)[C@H](O)[C@H]1N=[N+]=[N-] (stereo not given in full) | inactive: -2.4%
CN(C)CCOC(=O)C(O)(c1ccccc1)C1CCCCC1 (stereo not given) | inactive: 4.6%
O=P(Nc1nc2ccccc2s1)(c1ccccc1)c1ccccc1 | inactive: -1.2%
COc1ccc(NP(C)(=O)Oc2ccccc2OC)cc1 (stereo not given) | inactive: 0.5%
CC(C)(C)C(=O)NC(Sc1ccncn1)C(Cl)(Cl)Cl (stereo not given) | inactive: -7.5%
O=[N+]([O-])c1ncn(CCn2ncnc2[N+](=O)[O-])n1 | inactive: 4%
O=[N+]([O-])c1cccc(NC2=NCC(CBr)S2)c1 (stereo not given) | inactive: 2.9%
O=C(O)CNc1ccc([As](=O)(O)O)cc1 | inactive: 4.9%
O=C(Nc1cc([As](=O)(O)O)ccc1O)c1ccccc1 | inactive: 4.4%
CCOC(=O)c1ccc(NP(C)(=O)Oc2ccc(Cl)cc2)cc1 (stereo not given) | inactive: -17%
CP(=O)(OC12CC3CC(CC(C3)C1)C2)OC12CC3CC(CC(C3)C1)C2 | inactive: -4.3%
COc1ccccc1OP(C)(=O)Nc1ccccc1Br (stereo not given) | inactive: -4.4%
CC(C)(C)c1ccc(OP(C)(=O)O)cc1 | inactive: -13.2%
Nc1ccc([As](=O)(O)c2ccc(N)cc2)cc1 | inactive: 3.6%
CP(=O)(Nc1ccc(Cl)cc1)Oc1ccc(F)cc1 (stereo not given) | inactive: -16.5%
CCN(/C(=N/P(=O)(N1CCOCC1)N1CCOCC1)N1CCOCC1)c1ccc(OC)cc1 | inactive: 3.9%
CN(C)C(=O)OCCc1n(C)cc[n+]1C | inactive: 24.5%
CN(C)C(=O)c1c([N+](=O)[O-])cc([N+](=O)[O-])cc1[N+](=O)[O-] | inactive: 1.4%
CC(C)=N/N=C(\N)N[N+](=O)[O-] | inactive: 6.3%
CC1CCN(C(=O)Oc2c(Cl)cc(Cl)c3cccnc23)CC1 | inactive: -6.5%
COc1ccc(C2=NCC(CBr)S2)cc1 (stereo not given) | inactive: -7.1%
COc1ccc(OP(C)(=O)Nc2ccc(Br)cc2)cc1 (stereo not given) | inactive: -8.5%
CCN(CC)CC(O)COC(=O)C(O)(c1ccccc1)C1CCCCC1 (stereo not given) | inactive: -4.8%
O=C(OCCCN1CCCC1)C(O)(c1ccccc1)C1CCCCC1 (stereo not given) | inactive: 9.1%

SMILES | inhibition
O=[N+]([O-])c1cccc2n[nH]nc12 | inactive: -2.1%
CC(=O)N1C2C3N(C(C)=O)C1C1N(C(C)=O)C(C(N1C(C)=O)N3C(C)=O)N2C(C)=O | inactive: 34.7%
COc1ccccc1OP(C)(=O)Nc1c(C)n(C)n(-c2ccccc2)c1=O (stereo not given) | inactive: -7.2%
CCc1ccc(OP(C)(=O)Nc2cccnc2)cc1 (stereo not given) | inactive: 5.7%
CCc1nc2c(n1)c1c(non1O)c1c2no[n+]1[O-] | inactive: -2.4%
O=[N+]([O-])c1cc([N+](=O)[O-])c(CCNc2ccccc2)c([N+](=O)[O-])c1 | inactive: 0.6%
Cc1ccc(NP(=O)(Oc2ccccc2)Oc2ccccc2)nc1 | inactive: -3.9%
CP(=O)(Oc1ccccc1)N1CCOC1=O (stereo not given) | inactive: 2.5%
Cc1c(NP(C)(=O)Oc2ccc(C(C)C)cc2)c(=O)n(-c2ccccc2)n1C (stereo not given) | inactive: 0.7%
Nc1cc(N)c2nonc2c1[N+](=O)[O-] | inactive: 4.2%
CC(C)CC(=O)NC(Sc1ccc(Cl)cc1)C(Cl)(Cl)Cl (stereo not given) | inactive: -1.4%
O=[N+]([O-])c1cc([N+](=O)[O-])c(Nc2ccccn2)c([N+](=O)[O-])c1 | inactive: -9.1%
O=C(NC(Sc1ccncn1)C(Cl)(Cl)Cl)c1ccccc1 (stereo not given) | inactive: -7.7%
Cc1c2non([O-])c-2c(C)[n+](=O)[n+]1[O-] | inactive: 6.6%
Oc1ccccc1CNc1ccccn1 | inactive: -2.6%
COc1ccccc1OP(C)(=O)Nc1ccc(C)cc1C (stereo not given) | inactive: 1.5%
CP(=O)(Nc1ccccn1)Oc1ccccc1 (stereo not given) | inactive: -3.6%
CCc1ccc(OP(C)(=O)O)cc1 | inactive: -5.5%
NC(=O)c1cc([N+](=O)[O-])cc([N+](=O)[O-])c1N | inactive: 7.9%
Cc1ccc(N/C(=N/P(=O)(N2CCOCC2)N2CCOCC2)N2CCOCC2)cc1 | inactive: 3.6%
COc1ccccc1OP(C)(=O)Nc1ccc(Br)cc1 (stereo not given) | inactive: -4.2%
Cc1ccc(OP(=O)(Nc2nccs2)Oc2ccc(C)cc2)cc1 | inactive: 1.1%
COc1ccccc1OP(=O)(Nc1ccc(C)cn1)Oc1ccccc1OC | inactive: -10.4%
COc1ccc(OP(C)(=O)Nc2ccccn2)cc1 (stereo not given) | inactive: -6.2%
CN1CCCC(OC(=O)C(c2ccccc2)c2ccccc2)C1 (stereo not given) | inactive: -3.5%

From PubChem BioAssay AID2012 (Sanford-Burnham Center for Chemical Genomics, 2009)
